Results taken from PMC10789121, “Amine Basicity of Quinoline ATP Synthase Inhibitors Drives Antibacterial Activity against Pseudomonas aeruginosa” (ACS Medicinal Chemistry Letters, 2023).

System: PΔ6 (efflux knockout strain of PA)
Experiment: Antimicrobial susceptibility, broth microdilution MIC
Format: cell-based, Pseudomonas aeruginosa
Details: >85% reduction in growth at OD 590 nm; n = 3
Protocol: Pseudomonas aeruginosa (ATCC 9027), Drug-Resistant Pseudomonas aeruginosa from ATCC Panel MP-23 (BAA-2108, BAA-2109, BAA-2110), and Pseudomonas aeruginosa efflux knockout GKCW120 (PD6)14 provided by Zgurskaya and co-workers at the University of Oklahoma.
Antimicrobial Susceptibility Assay Procedure. Susceptibility testing was performed in biological triplicate, using the broth microdilution method as outlined by the Clinical and Laboratory Standards Institute. Briefly, minimum inhibitory concentrations (MIC) determinations were carried out in 96-well microtiter plates with 2-fold serial dilutions of the compounds from 0 […]
Briefly, to each well 1 µL of compound in DMSO, 89 µL of TSB, and 10 µL of bacterial inoculum, grown from frozen stock in 10 mL of TSB […]
for 4-6 hours, were added. […]
on a Biotek Synergy HTX Multi-mode plate reader. Data was processed by background subtracting the media absorbance and then normalizing the data to full bacterial growth with only vehicle.
MIC is defined as the lowest concentration of antibiotic or antibiotic/adjuvant combination that achieves ≥ 85% growth inhibition, which corresponds to no visible growth. […]

c1ccc(CSc2nc3ccccc3cc2CNCCc2cnc[nH]2)cc1 [Compound 22] was tested, and the “MIC PΔ6” value was “displayed antibacterial activity”.
